Tested on: 697 cells
Assay: Annexin V/propidium iodide apoptosis of 697 cells cultured in the absence or presence of marrow stromal cells (MSC)
Type: cell-based, human

For `COc1cccc2c1C(=O)c1c(O)c3c(c(O)c1C2=O)C[C@@](O)(C(=O)CO)C[C@@H]3O[C@H]1C[C@H](N)[C@H](O)[C@H](C)O1` [doxorubicin], the “proapototic effect of the drug when leukaemic cells are cultured in the presence of bone marrow stromal cells (MSC)” value was “almost completely abolished”.
